Literature values in PMC4956498 (Planta medica, 2016).

System: HT-29 human colon cancer cell line
Settings: cited from earlier work

3-hydroxyisomillettone [reference compound]
IC50 (read-out: Cytotoxicity IC50 against HT-29 cells): > 20 µM

(−)-3-hydroxyrotenone [Compound 6]
Cytotoxicity toward HT-29 cells (in words): potent activity

(−)-2,3-dehydrorotenone [Compound 10]
Cytotoxicity toward HT-29 cells (in words): inactive

COc1cc2c(cc1OC)[C@]1(O)C(=O)c3ccc4c(c3O[C@@H]1CO2)C=CC(C)(C)O4 [tephrosin, reference compound]
Cytotoxicity toward HT-29 cells (in words): inactive

(−)-13-homo-13-oxa-2,3-dehydrorotenone [Compound 9]
Cytotoxicity toward HT-29 cells (in words): inactive

COc1cc2c(cc1OC)-c1c(oc3c4c(ccc3c1=O)OC(C)(C)C=C4)CO2 [dehydrodeguelin, reference compound]
Cytotoxicity toward HT-29 cells (in words): inactive

COc1cc2c(cc1OC)[C@@H]1C(=O)c3ccc4c(c3O[C@@H]1CO2)C=CC(C)(C)O4 [deguelin, reference compound]
Cytotoxicity toward HT-29 cells (in words): inactive

C=C(C)[C@H]1Cc2c(ccc3c2O[C@@H]2COc4cc(OC)c(OC)cc4[C@@H]2C3=O)O1 [Compound 7, (−)-rotenone]
Cytotoxicity toward HT-29 cells (in words): potent activity
